## Binding of CDR-mutated scFvs to a peptide of the spike HR2 region

The measurements come from Li et al. 2023 (doi:10.1038/s41467-023-39022-2) through the FLAb antibody collection.

Target peptide (SARS-CoV-2 spike, HR2 region): PDVDLGDISGINAS

Ab-14 is the parent antibody, in scFv form: VH, then a 15-residue (Gly4Ser)3 linker, then VL. The heavy chain is unchanged in all variants.
VH: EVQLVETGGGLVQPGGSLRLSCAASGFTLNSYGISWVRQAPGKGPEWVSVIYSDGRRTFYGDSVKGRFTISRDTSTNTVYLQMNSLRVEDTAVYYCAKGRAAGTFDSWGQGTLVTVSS
VL: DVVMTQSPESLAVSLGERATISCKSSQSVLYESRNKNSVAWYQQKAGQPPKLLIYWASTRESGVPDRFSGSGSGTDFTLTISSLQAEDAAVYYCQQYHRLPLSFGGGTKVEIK

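Phage display of a naive human antibody library on the peptide gave the parent. The variants were designed computationally from a first round of random CDR variants and then made and measured. Several design methods are mixed in this list. AlphaSeq pools MATa yeast showing the antibodies with MATalpha yeast showing the peptide. After mating in shaken culture at 30 °C for 16 h, diploids were selected and their barcode pairs sequenced. A regression on co-assayed BCL2-family reference pairs converts the normalised counts of each replicate to an apparent Kd. The assay was run in six technical replicates.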

The parent's light chain CDRs are KSSQSVLYESRNKNSVA, WASTRES, QQYHRLPLS; each variant's own CDRs replace them letter for letter.
Variants here have more than six changes.
Scale: log10 of Kd in nM, estimated from mating counts; low values are strong binders.
Averages over replicates are reported, and they cover detected replicates only.
"nd" marks a missing value. The strain was present, yet no cells mated with the target were sequenced in that replicate, which points to weak or no binding.
Entries are sorted by rising average, undetected variants last.

Variant KVSQSVMGGSRNKNSVA | NASQREQ | QQYHRLPLS gave -0.03, -0.11, -0.37, -0.44, -0.26, 0.01 (mean -0.20). Variant ALQQLELYESRNWNSVA | NASTRED | QQYHRLPLS gave 0.07, -0.15, -0.03, -0.28, -0.22, 0.02 (mean -0.10). Variant KMSQSQLYEERASNAVA | QASQRES | QQYHRLPLS gave 0.51, 0.02, -0.58, 0.06, -0.20, -0.33 (mean -0.09). Variant KLSMITGHMQMAKNNVA | EMVTREN | QQYNRLPLS showed 0.01, -0.03, -0.09, -0.08, 0.12, -0.09 (mean -0.03). Variant ALRQKGFELHGDRQNIA | HSDTRAA | QQYSMLPLA gave 0.41, -0.21, 0.04, -0.46, 0.15, 0.11 (mean 0.01).

For HISMSMNWLSRNKDSIA | EESTRED | QQYHRLPLS, the assay gave 0.09, 0.14, 0.34, -0.42, 0.05, 0.04 (mean 0.04). Variant KIGGTLNQLMTKKNNVA | DLVMREQ | QQYHRLPLS showed 0.11, 0.17, 0.04, 0.17, -0.12, 0.32 (mean 0.12). With MISDLTMYGSRNVNSVA | DLSTRGS | QQYHRLPLS the result was 0.28, 0.11, 0.24, 0.20, 0.09, 0.14 (mean 0.18). Variant NVGQMMDGETRNRNSVA | HQSTRED | QHYHRLPLS gave 0.25, 0.13, 0.34, 0.08, 0.20, 0.13 (mean 0.19). Variant KISSLTMYESVNKNNIA | EMSTRPD | QSYHRLPLS showed 0.29, 0.15, 0.02, 0.29, 0.18, 0.27 (mean 0.20).

Variant KFDQEWLLESRNKNSVA | HASQRCS | QQYHRLPLS gave 0.46, 0.34, 0.27, 0.10, 0.14, 0.22 (mean 0.25). For KLSAATRMESRNKASVA | ENSTRES | QQYFRLPLS, the assay gave 0.24, 0.46, 0.47, 0.36, 0.09, 0.31 (mean 0.32). Variant KLQFSALMLQRNKNSVA | SASTRES | QQYHRLPLS showed 0.42, 0.44, 0.24, 0.33, 0.26, 0.44 (mean 0.36). Variant KCQISVEQESRQKNSVA | NASKRES | QQYHRLPLS showed 0.48, 0.40, 0.32, 0.41, 0.48, 0.43 (mean 0.42). With FIMHFGEESNRNSKNIA | SKDTRCD | QQYDRLPLS the result was 0.66, 0.43, 0.64, 0.31, 0.67, 0.50 (mean 0.53).

Variant KSSGSVLYEDRMVNSVA | NASQRLM | QQYHRLPLS gave 0.57, 0.71, 0.61, 0.60, 0.59, 0.84 (mean 0.66). Variant HISDLTMVASRNKNSVA | EESTRPD | QQYHRLPLS gave 0.94, 0.91, 0.57, 0.71, 0.58, 0.83 (mean 0.76). With KISQMVRVGSTISNSIA | EEVTRAK | QQYHRLPLS the result was 1.14, 0.75, 0.61, 0.68, 0.72, 0.70 (mean 0.77). For HITYGMQVMGRHSKSIA | QAEERAR | QQYDRLPLI, the assay gave 0.84, 0.67, 0.65, 0.90, 0.86, 0.78 (mean 0.78). For SMMFDTSDNYHERQNVA | DGAAIMA | QQYSILPLS, the assay gave 0.95, 0.70, 1.05, 0.46, 0.98, 0.65 (mean 0.80).

For TISQLYNMGQFAINSVA | QASIRNA | QQYDRLPLI, the assay gave 0.79, 0.89, 0.57, 0.79, 0.47, 1.35 (mean 0.81). Variant KISQLVNFLGKEKNSVA | QMSTREE | QQYDRLPLS showed 1.03, 0.68, 0.97, 0.81, 0.80, 0.60 (mean 0.81). Variant HITYGMMVHGRHAKSIA | QAETRAK | QQYDRLPLA showed 0.45, 0.47, 1.33, 0.77, 0.72, 1.33 (mean 0.84). With TLYGLTNSMSKNKDNVA | EMSTREA | QQYDRLPLA the result was 0.64, 0.86, 0.92, 1.59, 0.82, 0.54 (mean 0.90). Variant SLAYTQHFGFQQEKAIA | EVATREQ | QQYFRLPLT showed 1.87, 0.89, 0.20, 0.35, 0.71, 1.42 (mean 0.91).

With TLYMGPTEARDSKHAIA | DNNERDR | QQYHRLPLY the result was 0.75, 1.39, 0.60, 0.66, 1.28, 1.29 (mean 1.00). Variant HMSALTMMGMRQRNSVA | QMTTREN | QQYDRLPLV showed 1.06, 0.92, 0.98, 1.27, 0.94, 0.87 (mean 1.01). With VIDAFNFSDGQKWNNVA | QTSVRLQ | QYYQRLPLM the result was 1.26, 0.92, 1.39, 1.12, 0.65, 1.23 (mean 1.10). Variant QIGMLLNFESQKINNVA | QMETRVV | QQYDRLPLI gave 1.04, 1.18, 1.11, 1.44, 1.06, 0.98 (mean 1.13). Variant KVSEFMRGLMQRKDSIA | DNVTRVN | QQYDRLPLS showed 1.37, 1.13, 1.43, 1.18, 1.15, 1.15 (mean 1.23).

For MVSQLMVWGLHAKNSIA | EGQTRLN | QQYDRLPLF, the assay gave 0.97, 0.89, 1.36, 1.92, 1.56, 1.54 (mean 1.37). For QLLFATMQGTYNRNSVA | HAETRED | QSYHRLPLS, the assay gave 1.30, 1.37, 1.68, 2.08, 1.59, 1.81 (mean 1.64). Variant MIGQVAFGLSRKANSVA | DNSTREN | QQYDRLPLS showed nd, 3.02, nd, 1.82, 2.31, nd (mean 2.38). For IVSQLMLWGLHAKQSIA | EAVTRLN | QQYDRLPLF, the assay gave 1.53, nd, 1.15, nd, 3.29, 4.20 (mean 2.54). Variant QLYELSVELSGKTHSVA | DNSTRGD | QQYFRLPLD showed 2.89, nd, 2.79, 2.76, 3.37, 2.79 (mean 2.92).

Variant MIAAGLKGVGRNKNSVA | NAQTRES | QHYHRLPLS gave nd, 2.64, nd, 4.42, nd, 3.16 (mean 3.41). For MISESVMYESRNKNSVA | DNSTRED | QCYDRLPLS, the assay gave nd, nd, nd, nd, nd, nd. For SLGLVTMLEYAGRNSVA | NNSTRES | QQYDRLPLS, the assay gave nd, nd, nd, nd, nd, nd. With IVSQLMIWGMKLKNSIA | EAETRLN | QQYERLPLF the result was nd, nd, nd, nd, nd, nd. Variant SLAESAHLESRNKNSVA | DNTTRES | QHYDRLPLS showed nd, nd, nd, nd, nd, nd.

The first 2 entries again:

{"CDR-L1": "KVSQSVMGGSRNKNSVA", "CDR-L2": "NASQREQ", "CDR-L3": "QQYHRLPLS", "log10 Kd (nM) by replicate": "-0.03, -0.11, -0.37, -0.44, -0.26, 0.01", "log10 Kd (nM), mean": "-0.20"}
{"CDR-L1": "ALQQLELYESRNWNSVA", "CDR-L2": "NASTRED", "CDR-L3": "QQYHRLPLS", "log10 Kd (nM) by replicate": "0.07, -0.15, -0.03, -0.28, -0.22, 0.02", "log10 Kd (nM), mean": "-0.10"}

Empty control strains, which show no peptide, gave a signal in 4% of pairings with all light chain designs; the median was 2.64 and 95% of these signals were weaker than 1.59. No background was subtracted.
The parent sequence was in this pool as ten entries: three were never detected, three once, and four in most replicates, with averages from 0.34 to 2.37.
The authors averaged sequences with at least three values out of six and counted those with two or fewer as poor binders.
A sequence measured in both rounds can read differently, since the two assays cover different ranges.